Results taken from ChEMBL document CHEMBL2016448, “Discovery of new piperidine amide triazolobenzodiazepinones as intestinal-selective CCK1 receptor agonists” (Bioorg Med Chem Lett, 2012).

The chains behind the UniProt entries cited, without tags or fusion partners.
UniProt P30551, whole entry: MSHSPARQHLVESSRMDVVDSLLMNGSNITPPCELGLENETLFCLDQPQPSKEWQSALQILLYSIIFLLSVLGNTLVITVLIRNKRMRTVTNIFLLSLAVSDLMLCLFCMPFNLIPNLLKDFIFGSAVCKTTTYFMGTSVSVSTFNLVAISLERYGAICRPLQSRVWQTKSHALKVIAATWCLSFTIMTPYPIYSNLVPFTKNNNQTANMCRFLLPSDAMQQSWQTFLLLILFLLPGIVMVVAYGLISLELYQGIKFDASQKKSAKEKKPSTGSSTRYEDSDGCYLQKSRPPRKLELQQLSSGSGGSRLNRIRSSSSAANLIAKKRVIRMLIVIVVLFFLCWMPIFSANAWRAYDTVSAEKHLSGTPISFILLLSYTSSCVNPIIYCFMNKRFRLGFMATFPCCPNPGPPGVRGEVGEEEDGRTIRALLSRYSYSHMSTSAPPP
UniProt P32238, whole entry: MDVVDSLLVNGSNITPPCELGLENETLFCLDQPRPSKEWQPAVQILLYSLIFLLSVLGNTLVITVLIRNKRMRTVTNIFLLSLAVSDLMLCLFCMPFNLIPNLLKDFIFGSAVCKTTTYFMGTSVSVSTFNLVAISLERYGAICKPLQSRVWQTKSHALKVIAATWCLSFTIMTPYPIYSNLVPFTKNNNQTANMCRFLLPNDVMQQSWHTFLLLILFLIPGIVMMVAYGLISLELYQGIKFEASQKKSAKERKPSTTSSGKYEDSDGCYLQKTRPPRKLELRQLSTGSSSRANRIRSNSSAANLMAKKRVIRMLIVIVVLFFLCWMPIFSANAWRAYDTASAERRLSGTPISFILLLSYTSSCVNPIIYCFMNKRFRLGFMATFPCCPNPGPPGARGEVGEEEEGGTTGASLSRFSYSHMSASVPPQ

Legend:
[1] = target: Cholecystokinin receptor type A (Rattus norvegicus, UniProt P30551); assay: Displacement of [125I]-CCK-2 from rat CCK1 receptor expressed in CHO cells after 90 mins by liquid scintillation counting; assay type: cell-based
[2] = target: T1, Cholecystokinin receptor type A (Homo sapiens, UniProt P32238); assay: Agonist activity at human CCK1 receptor assessed as increase in CCK8-induced calcium release incubated in dark for 30 mins followed by light incubation for 30 mins measured by FLIPR assay; assay type: functional
Summary of the method: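 FLIPR functional assay in CHO cells expressing human CCK1R. Agonism expressed as % of the CCK-8 peptide response. Initial screen at 30 µM, with >30% counted as active. Actives then run as full dose–response. EC50 is the geometric mean of at least 2 independent experiments.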

[3] = target: T1, Cholecystokinin receptor type A; assay: Displacement of [125I]-CCK-8 from human CCK1 receptor expressed in CHO cells after 90 mins by liquid scintillation counting

| IC50 [1] [nM] | EC50 [2] [nM] | IC50 [3] [nM] | SMILES |
| --- | --- | --- | --- |
| 14.7 | 25.4 | 20.3 | Cc1cc(C)cc(C[C@H]2CCCCN2C(=O)CN2C(=O)[C@@H](Cc3n[nH]c4ccccc34)c3nnc(-c4ccccc4)n3-c3ccccc32)c1 |
|  | 123 | 23.6 | CC(C)N(Cc1ccccc1)C(=O)CN1C(=O)[C@@H](Cc2c[nH]c3ccccc23)c2nnc(-c3ccccc3)n2-c2ccccc21 [CE-326597] |
